How the values were obtained:
Caldesmon = Caldesmon (UniProt Q05682); conditions: cited from earlier work
[1] = target: TSC2 peptide (Homo sapiens) (UniProt P49815); conditions: cited from earlier work
B50 (neuromodulin) = B50 (neuromodulin) (UniProt P17677); conditions: cited from earlier work
Strep-GFP-tagged TSC2 = Strep-GFP-tagged TSC2 (UniProt P49815); test: co-IP; HiBiT lytic assay as a competition: purified His-CaM (0, 0.17, 0.25, 0.50, 1.0, 2.0, 4.0, 6.0 μM) with 100 μM CaCl2 added to the mixed lysates with Strep-GFP-TSC2 and HiBiT-Rheb; IC50 from the average of two independent experiments

IC50 (Strep-GFP-tagged TSC2) | Substance | Kd (Caldesmon) | Kd [1] | Kd (B50 (neuromodulin))
– | Calmodulin (from UniProt P0DP23) | 800 nM | 1000 nM | 4.2 µM
1100 nM | His-tagged calmodulin (His-CaM), wild type (from UniProt P0DP24 2-149) (natural protein) | – | – | –
